## Curated experimental data: fraction unbound values

Data: OPERA 2.9 data sets, kmansouri/OPERA on GitHub.

The unbound fraction in human plasma runs from 0 (all bound) to 1 (all free).

Cc1cn([C@H]2C=C[C@@H](CO)O2)c(=O)[nH]c1=O [Stavudine] has plasma fu 0.9933. CCOc1cc(Cc2cnc(N)nc2N)cc(OCC)c1-n1cccc1 [Epiroprim] is reported with plasma fu 0.1. CC(C)NCC(O)COc1ccc(O)cc1 (centres undefined) [Prenalterol] is reported with plasma fu 0.96. COCCCOc1cc(C[C@@H](C[C@H](N)[C@@H](O)C[C@H](C(=O)NCC(C)(C)C(N)=O)C(C)C)C(C)C)ccc1OC [Aliskiren] has plasma fu 0.505.

COCC(=O)Nc1c(I)c(C(=O)NCC(O)CO)c(I)c(C(=O)N(C)CC(O)CO)c1I (centres undefined) [Iopromide] has plasma fu 0.99. Listed for CC(C)[C@H](N)C(=O)OCC(CO)OCn1cnc2c(=O)nc(N)[nH]c21 (stereo partly drawn) [Valganciclovir]: plasma fu 0.985. O=P(O)(O)OC(Cn1cncn1)(Cn1cncn1)c1ccc(F)cc1F [Fosfluconazole] has plasma fu 0.04167. CC(C)=CCC1C(=O)N(c2ccccc2)N(c2ccccc2)C1=O [Feprazone] has plasma fu 0.05.

The entry for c1ccc2c(c1)Cc1ccccc1-2 [Fluorene] lists plasma fu 0.01567. For C[C@H]1[C@@H](OC(=O)CCC(=O)O)O[C@@H]2O[C@@]3(C)CC[C@H]4[C@H](C)CC[C@@H]1[C@@]24OO3 [Artesunate] the data give plasma fu 0.25. Nc1ncnc2c1ncn2[C@@H]1O[C@H](CO)[C@@H](O)[C@@H]1O [Adenine 9-beta-D-arabinofuranoside] has plasma fu 0.69. Listed for O=C1[C@@H]2[C@H]3CC[C@H](C3)[C@@H]2C(=O)N1CCCCN1CCN(c2ncccn2)CC1 [Tandospirone]: plasma fu 0.7.

The entry for CC[C@H]1OC(=O)[C@H](C)[C@@H](O[C@H]2C[C@@](C)(OC)[C@@H](O)[C@H](C)O2)[C@H](C)[C@@H](O[C@@H]2O[C@H](C)C[C@H](N(C)C)[C@H]2O)[C@](C)(O)C[C@@H](C)[C@@H]2N[C@@H](COCCOC)O[C@@H]([C@H]2C)[C@]1(C)O [Dirithromycin] lists plasma fu 0.775. The entry for COc1cc2c3cc1Oc1cc(ccc1O)C[C@@H]1c4c(cc(OC)c(O)c4Oc4ccc(cc4)C[C@@H]3N(C)CC2)CC[N+]1(C)C.Cl.[Cl-] [(+)-Tubocurarine chloride hydrochloride] lists plasma fu 0.5733. O=c1[nH]c2ccccc2n1CCCN1CCN(C(c2ccccc2)c2ccccc2)CC1 [Oxatomide] is reported with plasma fu 0.09. The entry for CCN(CC)CCNC(=O)c1ccc(NC(C)=O)cc1 [Acecainide] lists plasma fu 0.9.

Listed for CC[N+](CC)(CC(=O)Nc1c(C)cccc1C)Cc1ccccc1.O=C1[N-]S(=O)(=O)c2ccccc21 [Denatonium saccharide]: plasma fu 0.488. For C=C1CC[C@H](O)C/C1=C/C=C1\CCC[C@]2(C)[C@@H]([C@H](C)CCCC(C)C)CC[C@@H]12 [Vitamin D3] the data give plasma fu 0.35. C=C1C[C@]23C[C@@]1(O)CC[C@H]2[C@@]12C=C[C@H](O)[C@@](C)(C(=O)O1)[C@H]2[C@@H]3C(=O)O [Gibberellic acid] has plasma fu 0.24. Cc1c(N(C)C)c(=O)n(-c2ccccc2)n1C [4-Dimethylaminoantipyrine] is reported with plasma fu 0.925.

Listed for CC[C@H]1NC(=O)[C@@H](NC(=O)c2ncccc2O)[C@@H](C)OC(=O)[C@H](c2ccccc2)NC(=O)[C@@H]2CC(=O)[C@H](CS[C@@H]3CN4CCC3CC4)CN2C(=O)[C@H](Cc2ccc(N(C)C)cc2)N(C)C(=O)[C@@H]2CCCN2C1=O [Quinupristin]: plasma fu 0.3375. For CS(=O)(=O)c1ccc([C@@H](O)[C@@H](CF)NC(=O)C(Cl)Cl)cc1 [Florfenicol] the data give plasma fu 0.7715. The entry for COc1ccc2c(c1)c(CC(=O)OCC(=O)O)c(C)n2C(=O)c1ccc(Cl)cc1 [Acemetacin] lists plasma fu 0.1. CCN(CC)C(=O)Nc1ccc(OCC(O)CNC(C)(C)C)c(C(C)=O)c1 (centres undefined) [Celiprolol] has plasma fu 0.75.

Fc1ccc([C@@H]2CCNC[C@H]2COc2ccc3c(c2)OCO3)cc1 [Paroxetine] has plasma fu 0.07672. For COc1ccc(CC2c3cc(OC)c(OC)cc3CC[N+]2(C)CCC(=O)OCCCCCOC(=O)CC[N+]2(C)CCc3cc(OC)c(OC)cc3C2Cc2ccc(OC)c(OC)c2)cc1OC (centres undefined) [Atrcurium] the data give plasma fu 0.5193. Listed for CN1C(=O)OC(C)(C)C1=O [Trimethadione]: plasma fu 0.9258. CN(Cc1nc2c(N)nc(N)nc2nc1O)c1ccc(C(=O)N[C@@H](CCC(=O)O)C(=O)O)cc1 [7-Hydroxymethotrexate] is reported with plasma fu 0.13.

The entry for OC(CCN1CCCCC1)(C1CCCCC1)c1ccccc1 (centres undefined) lists plasma fu 0.37. For NC(=O)c1cc[n+](CC2=C(C(=O)[O-])N3C(=O)[C@@H](NC(=O)C(c4ccccc4)S(=O)(=O)O)[C@H]3SC2)cc1 (some centres not stated) [Cefsulodin] the data give plasma fu 0.77. O=C(O)c1cc(O)c(O)c(O)c1 [Gallic acid] has plasma fu 0.682. O=C(NCCc1ccccc1Cl)c1cc(-n2ncc(=O)[nH]c2=O)ccc1Cl is reported with plasma fu 0.028.

Listed for CO[C@@]1(NC(=O)C2SC(=C(C(N)=O)C(=O)O)S2)C(=O)N2C(C(=O)O)=C(CSc3nnnn3C)CS[C@@H]21 (stereo partly specified) [Cefotetan]: plasma fu 0.155. For Sc1nc2ccccc2s1 [2-mercaptobenzothiazole] the data give plasma fu 0.02813. The entry for CN1[C@@H]2CC[C@H]1C[C@@H](OC(=O)c1c[nH]c3ccccc13)C2 [Tropisetron] lists plasma fu 0.3.

A selection of 6 entries from above:

| SMILES | name | plasma fu |
|---|---|---|
| CN1[C@@H]2CC[C@H]1C[C@@H](OC(=O)c1c[nH]c3ccccc13)C2 | Tropisetron | 0.3 |
| CC(C)[C@H](N)C(=O)OCC(CO)OCn1cnc2c(=O)nc(N)[nH]c21 (stereo partly drawn) | Valganciclovir | 0.985 |
| COCC(=O)Nc1c(I)c(C(=O)NCC(O)CO)c(I)c(C(=O)N(C)CC(O)CO)c1I (centres undefined) | Iopromide | 0.99 |
| CCOc1cc(Cc2cnc(N)nc2N)cc(OCC)c1-n1cccc1 | Epiroprim | 0.1 |
| COc1cc2c3cc1Oc1cc(ccc1O)C[C@@H]1c4c(cc(OC)c(O)c4Oc4ccc(cc4)C[C@@H]3N(C)CC2)CC[N+]1(C)C.Cl.[Cl-] | (+)-Tubocurarine chloride hydrochloride | 0.5733 |
| CO[C@@]1(NC(=O)C2SC(=C(C(N)=O)C(=O)O)S2)C(=O)N2C(C(=O)O)=C(CSc3nnnn3C)CS[C@@H]21 (stereo partly specified) | Cefotetan | 0.155 |

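OPERA's authors assembled the values from existing databases and did not measure them anew. One number stands for a compound and property, with no spread given. Method, purity and exact conditions of the single measurements are not given. A value may pool stereoisomers or salt forms, and the file does not say which form was measured. Some entries may be limits or estimates that an upstream database listed as plain numbers.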